According to publication PMC10009755, “Discovery and Characterization of BAY-805, a Potent and Selective Inhibitor of Ubiquitin-Specific Protease USP21” (Journal of Medicinal Chemistry, 2023):
Where “and” joins values, the source holds several entries; their conditions need not be identical. Equal entries are not always repeated.

Sequences of proteins named here, by UniProt entry; tags and fusion partners are left off. A change or cut given only in a name is not applied to a line headed by its entry. Residues count along the entry.
UniProt P45974, whole entry, species assumed: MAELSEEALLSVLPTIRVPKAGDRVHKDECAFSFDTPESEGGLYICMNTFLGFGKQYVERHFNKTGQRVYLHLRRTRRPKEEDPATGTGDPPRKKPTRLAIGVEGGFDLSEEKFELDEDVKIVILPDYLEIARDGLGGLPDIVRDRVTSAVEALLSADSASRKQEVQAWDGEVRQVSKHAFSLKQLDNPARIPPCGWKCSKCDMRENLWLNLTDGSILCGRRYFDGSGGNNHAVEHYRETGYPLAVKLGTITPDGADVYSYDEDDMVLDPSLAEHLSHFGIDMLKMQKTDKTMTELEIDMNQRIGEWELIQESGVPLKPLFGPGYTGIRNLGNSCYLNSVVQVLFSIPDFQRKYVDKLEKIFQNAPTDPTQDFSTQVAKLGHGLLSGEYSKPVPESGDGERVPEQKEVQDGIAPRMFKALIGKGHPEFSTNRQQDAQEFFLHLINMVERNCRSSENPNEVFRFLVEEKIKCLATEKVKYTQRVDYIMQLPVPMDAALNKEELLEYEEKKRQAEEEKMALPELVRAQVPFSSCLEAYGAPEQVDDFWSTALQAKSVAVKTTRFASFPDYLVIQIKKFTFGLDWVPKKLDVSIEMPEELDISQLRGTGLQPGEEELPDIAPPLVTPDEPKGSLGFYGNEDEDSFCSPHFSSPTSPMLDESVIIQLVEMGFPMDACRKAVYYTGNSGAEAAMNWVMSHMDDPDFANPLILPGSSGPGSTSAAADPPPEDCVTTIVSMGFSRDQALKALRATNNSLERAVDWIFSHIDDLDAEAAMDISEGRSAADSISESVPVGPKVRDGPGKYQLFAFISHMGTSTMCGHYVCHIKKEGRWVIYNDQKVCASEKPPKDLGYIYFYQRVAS
UniProt Q9P286: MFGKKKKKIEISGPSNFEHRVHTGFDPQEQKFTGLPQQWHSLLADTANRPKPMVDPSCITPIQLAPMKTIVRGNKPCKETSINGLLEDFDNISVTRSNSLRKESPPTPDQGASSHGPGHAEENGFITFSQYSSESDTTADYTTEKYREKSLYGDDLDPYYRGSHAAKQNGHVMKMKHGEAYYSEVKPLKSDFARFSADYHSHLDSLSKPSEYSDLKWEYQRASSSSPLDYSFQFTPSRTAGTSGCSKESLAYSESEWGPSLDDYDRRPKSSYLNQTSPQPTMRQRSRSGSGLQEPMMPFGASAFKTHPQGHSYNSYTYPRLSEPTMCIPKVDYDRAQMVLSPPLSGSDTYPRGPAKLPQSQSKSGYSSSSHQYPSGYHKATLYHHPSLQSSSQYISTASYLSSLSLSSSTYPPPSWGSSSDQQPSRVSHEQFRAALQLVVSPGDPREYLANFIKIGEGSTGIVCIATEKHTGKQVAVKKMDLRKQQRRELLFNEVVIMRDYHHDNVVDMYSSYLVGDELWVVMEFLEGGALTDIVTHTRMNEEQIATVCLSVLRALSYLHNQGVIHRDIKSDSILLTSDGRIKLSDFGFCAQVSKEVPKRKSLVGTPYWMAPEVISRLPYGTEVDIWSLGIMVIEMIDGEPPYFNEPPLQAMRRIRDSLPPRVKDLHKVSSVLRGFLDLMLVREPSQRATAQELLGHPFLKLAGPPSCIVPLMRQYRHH
UniProt P08581, 25-1390: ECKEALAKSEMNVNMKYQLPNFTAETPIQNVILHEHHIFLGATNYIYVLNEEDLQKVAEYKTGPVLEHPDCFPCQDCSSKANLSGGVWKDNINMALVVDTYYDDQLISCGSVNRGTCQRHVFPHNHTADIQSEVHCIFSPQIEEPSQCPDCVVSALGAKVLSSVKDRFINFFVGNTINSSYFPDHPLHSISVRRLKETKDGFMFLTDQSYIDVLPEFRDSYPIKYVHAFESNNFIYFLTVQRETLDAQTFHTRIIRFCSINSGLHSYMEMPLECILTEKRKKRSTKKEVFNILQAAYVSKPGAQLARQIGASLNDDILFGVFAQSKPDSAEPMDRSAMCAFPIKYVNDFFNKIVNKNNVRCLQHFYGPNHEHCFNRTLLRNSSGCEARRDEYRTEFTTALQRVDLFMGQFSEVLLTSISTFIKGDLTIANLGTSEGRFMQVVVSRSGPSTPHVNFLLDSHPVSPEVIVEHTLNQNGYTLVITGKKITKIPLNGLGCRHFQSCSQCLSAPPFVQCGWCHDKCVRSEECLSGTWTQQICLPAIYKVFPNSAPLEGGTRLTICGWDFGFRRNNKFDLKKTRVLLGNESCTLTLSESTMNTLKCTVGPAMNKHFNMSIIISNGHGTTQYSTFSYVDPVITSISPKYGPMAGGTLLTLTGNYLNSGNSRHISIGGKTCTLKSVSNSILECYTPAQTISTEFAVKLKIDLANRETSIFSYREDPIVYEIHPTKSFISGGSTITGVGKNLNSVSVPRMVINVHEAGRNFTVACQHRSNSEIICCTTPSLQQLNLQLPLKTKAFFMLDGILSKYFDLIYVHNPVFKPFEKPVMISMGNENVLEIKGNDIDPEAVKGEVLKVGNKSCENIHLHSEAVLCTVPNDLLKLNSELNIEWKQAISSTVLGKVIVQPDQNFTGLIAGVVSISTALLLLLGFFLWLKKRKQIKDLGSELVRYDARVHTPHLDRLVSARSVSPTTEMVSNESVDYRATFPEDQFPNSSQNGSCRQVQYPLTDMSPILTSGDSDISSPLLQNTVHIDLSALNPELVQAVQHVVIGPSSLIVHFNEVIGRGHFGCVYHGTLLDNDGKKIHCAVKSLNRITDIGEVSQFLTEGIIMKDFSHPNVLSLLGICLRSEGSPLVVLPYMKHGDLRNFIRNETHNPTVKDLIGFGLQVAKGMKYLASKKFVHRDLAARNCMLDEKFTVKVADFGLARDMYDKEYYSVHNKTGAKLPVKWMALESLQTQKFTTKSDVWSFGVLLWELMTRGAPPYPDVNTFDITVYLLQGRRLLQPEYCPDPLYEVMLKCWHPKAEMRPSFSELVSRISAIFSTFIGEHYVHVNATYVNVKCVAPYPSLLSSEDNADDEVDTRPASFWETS
UniProt Q15759, whole entry: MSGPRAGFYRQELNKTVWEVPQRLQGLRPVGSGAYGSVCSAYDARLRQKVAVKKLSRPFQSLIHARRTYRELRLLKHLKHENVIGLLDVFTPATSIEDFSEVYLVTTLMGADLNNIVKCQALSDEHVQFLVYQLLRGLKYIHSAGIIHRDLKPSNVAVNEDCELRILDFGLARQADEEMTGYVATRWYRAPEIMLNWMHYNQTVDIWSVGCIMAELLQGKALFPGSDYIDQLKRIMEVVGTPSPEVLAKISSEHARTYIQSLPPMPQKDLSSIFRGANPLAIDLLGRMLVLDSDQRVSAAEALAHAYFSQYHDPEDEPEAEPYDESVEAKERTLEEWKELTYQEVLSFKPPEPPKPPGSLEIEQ
UniProt P24723, whole entry: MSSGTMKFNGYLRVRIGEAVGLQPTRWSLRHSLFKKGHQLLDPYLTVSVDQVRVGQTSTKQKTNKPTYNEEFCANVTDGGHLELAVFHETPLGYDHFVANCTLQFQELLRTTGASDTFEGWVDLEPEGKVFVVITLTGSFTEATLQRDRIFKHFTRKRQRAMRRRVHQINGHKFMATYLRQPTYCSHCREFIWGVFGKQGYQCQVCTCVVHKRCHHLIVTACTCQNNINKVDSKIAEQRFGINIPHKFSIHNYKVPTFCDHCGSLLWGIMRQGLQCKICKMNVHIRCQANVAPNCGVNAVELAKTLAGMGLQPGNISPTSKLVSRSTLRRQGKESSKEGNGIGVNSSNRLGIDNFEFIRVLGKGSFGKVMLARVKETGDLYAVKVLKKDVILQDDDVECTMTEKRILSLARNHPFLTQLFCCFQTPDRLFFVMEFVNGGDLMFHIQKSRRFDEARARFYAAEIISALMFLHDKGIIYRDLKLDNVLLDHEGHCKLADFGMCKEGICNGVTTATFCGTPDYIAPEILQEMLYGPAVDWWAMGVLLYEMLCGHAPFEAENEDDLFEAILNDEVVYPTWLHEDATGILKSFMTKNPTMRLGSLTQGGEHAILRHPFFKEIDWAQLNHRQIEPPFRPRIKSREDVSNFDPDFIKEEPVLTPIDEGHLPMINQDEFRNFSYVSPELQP
UniProt P51784: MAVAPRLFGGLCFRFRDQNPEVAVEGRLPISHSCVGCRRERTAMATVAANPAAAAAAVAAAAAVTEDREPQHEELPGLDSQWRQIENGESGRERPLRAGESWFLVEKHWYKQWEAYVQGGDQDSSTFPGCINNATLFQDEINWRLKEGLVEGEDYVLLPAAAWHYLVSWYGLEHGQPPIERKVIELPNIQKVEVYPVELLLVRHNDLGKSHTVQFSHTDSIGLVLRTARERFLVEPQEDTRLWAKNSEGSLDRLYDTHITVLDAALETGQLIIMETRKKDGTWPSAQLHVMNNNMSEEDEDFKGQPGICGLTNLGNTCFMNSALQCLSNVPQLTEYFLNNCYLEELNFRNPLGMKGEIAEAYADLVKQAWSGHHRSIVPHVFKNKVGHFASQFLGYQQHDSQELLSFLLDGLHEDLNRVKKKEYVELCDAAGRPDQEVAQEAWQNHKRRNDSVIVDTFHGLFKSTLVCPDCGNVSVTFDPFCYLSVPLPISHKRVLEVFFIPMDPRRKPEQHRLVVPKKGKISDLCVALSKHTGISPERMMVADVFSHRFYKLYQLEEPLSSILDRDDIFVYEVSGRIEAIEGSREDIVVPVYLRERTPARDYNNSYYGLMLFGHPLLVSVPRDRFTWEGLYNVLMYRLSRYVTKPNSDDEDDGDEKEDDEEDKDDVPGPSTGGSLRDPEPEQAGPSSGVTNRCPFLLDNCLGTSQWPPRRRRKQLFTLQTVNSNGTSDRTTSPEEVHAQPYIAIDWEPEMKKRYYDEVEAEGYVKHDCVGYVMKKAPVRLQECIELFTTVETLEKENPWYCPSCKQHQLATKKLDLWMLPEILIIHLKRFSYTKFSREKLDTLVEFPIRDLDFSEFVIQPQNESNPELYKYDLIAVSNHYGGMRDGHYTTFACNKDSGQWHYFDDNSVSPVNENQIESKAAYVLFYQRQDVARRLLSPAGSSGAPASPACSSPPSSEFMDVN
UniProt O00329: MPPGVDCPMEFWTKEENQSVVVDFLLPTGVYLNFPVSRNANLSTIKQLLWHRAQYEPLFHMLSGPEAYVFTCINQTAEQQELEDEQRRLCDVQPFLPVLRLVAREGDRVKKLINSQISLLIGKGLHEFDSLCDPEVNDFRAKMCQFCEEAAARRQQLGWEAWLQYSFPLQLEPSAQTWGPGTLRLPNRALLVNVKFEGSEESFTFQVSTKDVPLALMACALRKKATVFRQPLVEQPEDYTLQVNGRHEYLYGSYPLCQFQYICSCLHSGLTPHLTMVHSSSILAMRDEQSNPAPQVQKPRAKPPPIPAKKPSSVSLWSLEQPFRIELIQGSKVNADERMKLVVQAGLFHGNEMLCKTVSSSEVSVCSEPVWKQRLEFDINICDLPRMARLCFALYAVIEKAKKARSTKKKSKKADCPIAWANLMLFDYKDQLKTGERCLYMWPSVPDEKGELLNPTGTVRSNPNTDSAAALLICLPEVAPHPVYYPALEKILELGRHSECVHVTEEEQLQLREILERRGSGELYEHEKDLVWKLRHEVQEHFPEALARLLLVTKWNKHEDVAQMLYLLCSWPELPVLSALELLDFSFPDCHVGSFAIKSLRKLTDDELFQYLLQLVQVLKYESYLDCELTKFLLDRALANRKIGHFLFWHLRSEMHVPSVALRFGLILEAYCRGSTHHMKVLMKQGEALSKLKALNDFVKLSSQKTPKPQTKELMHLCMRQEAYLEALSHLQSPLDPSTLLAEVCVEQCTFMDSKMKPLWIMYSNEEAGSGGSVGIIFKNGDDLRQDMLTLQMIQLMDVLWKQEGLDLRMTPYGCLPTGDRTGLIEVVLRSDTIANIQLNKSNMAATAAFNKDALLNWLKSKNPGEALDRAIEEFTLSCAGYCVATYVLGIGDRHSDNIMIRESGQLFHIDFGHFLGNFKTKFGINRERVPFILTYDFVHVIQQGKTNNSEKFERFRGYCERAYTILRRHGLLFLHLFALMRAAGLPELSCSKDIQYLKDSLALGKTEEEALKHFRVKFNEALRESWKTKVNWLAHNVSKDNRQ
UniProt Q96FJ0: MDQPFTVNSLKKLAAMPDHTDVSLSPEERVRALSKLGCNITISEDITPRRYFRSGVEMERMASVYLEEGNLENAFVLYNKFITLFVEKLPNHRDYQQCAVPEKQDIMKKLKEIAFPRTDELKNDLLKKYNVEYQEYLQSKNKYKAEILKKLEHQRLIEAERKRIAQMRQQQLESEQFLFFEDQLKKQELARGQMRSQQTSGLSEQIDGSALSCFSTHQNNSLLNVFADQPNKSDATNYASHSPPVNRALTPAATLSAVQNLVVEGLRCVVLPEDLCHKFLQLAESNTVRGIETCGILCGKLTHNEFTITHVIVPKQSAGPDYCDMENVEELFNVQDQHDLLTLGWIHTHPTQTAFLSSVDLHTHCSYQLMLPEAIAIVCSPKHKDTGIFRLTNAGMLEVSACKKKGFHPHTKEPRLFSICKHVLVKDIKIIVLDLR

Legend:
CDK6/cyclinD3(h) = CDK6/cyclinD3(h) (Homo sapiens, UniProt Q00534); experiment: biochemical
USP5 = USP5 (Homo sapiens, UniProt P45974); experiment: biochemical; conditions: read-out: Activity (% Control)
PAK5(h) = PAK5(h) (Homo sapiens, UniProt Q9P286); experiment: biochemical
Met(h) = Met(h) (Homo sapiens, UniProt P08581); experiment: biochemical
Carbonic Anhydrase II = Carbonic Anhydrase II (Homo sapiens, UniProt P00918); experiment: biochemical; conditions: read-out: % Inh.
ROCK-II(h) = ROCK-II(h) (Homo sapiens, UniProt O75116); experiment: biochemical
MINK(h) = MINK(h) (Homo sapiens, UniProt Q8N4C8); experiment: biochemical
DDR2(h) = DDR2(h) (Homo sapiens, UniProt Q16832); experiment: biochemical
CDK1/cyclinB(h) = CDK1/cyclinB(h) (Homo sapiens, UniProt P06493); experiment: biochemical
STK39(h) = STK39(h) (Homo sapiens, UniProt Q9UEW8); experiment: biochemical
A549 = experiment: cells; conditions: Homo sapiens, A549, 72 h, read-out: antiproliferative effect
TAK1(h) = TAK1(h) (Homo sapiens, UniProt O43318); experiment: biochemical
Fyn(h) = Fyn(h) (Homo sapiens, UniProt P06241); experiment: biochemical
PEK(h) = PEK(h) (Homo sapiens, UniProt Q9NZJ5); experiment: biochemical
GRK6(h) = GRK6(h) (Homo sapiens, UniProt P43250); experiment: biochemical
HPK1(h) = HPK1(h) (Homo sapiens, UniProt Q92918); experiment: biochemical
Monoamine Oxidase MAO-A = Monoamine Oxidase MAO-A (Homo sapiens, UniProt P21397); experiment: biochemical; conditions: read-out: % Inh.
[1] = target: Transporter, Dopamine (DAT) (Homo sapiens, UniProt Q01959); experiment: biochemical; conditions: read-out: % Inh.
GCK (h) = GCK (h) (Homo sapiens, UniProt Q12851); experiment: biochemical
JAK1(h) = JAK1(h) (Homo sapiens, UniProt P23458); experiment: biochemical
CDKL2(h) = CDKL2(h) (Homo sapiens, UniProt Q92772); experiment: biochemical
USP45 = USP45 (Homo sapiens, UniProt Q70EL2); experiment: biochemical; conditions: read-out: Activity (% Control)
USP8 = USP8 (Homo sapiens, UniProt P40818); experiment: biochemical; conditions: read-out: Activity (% Control)
USP25 = USP25 (Homo sapiens, UniProt Q9UHP3); experiment: biochemical; conditions: read-out: Activity (% Control)
Tie2(h) = Tie2(h) (Homo sapiens, UniProt Q02763); experiment: biochemical
MAP4K3(h) = MAP4K3(h) (Homo sapiens, UniProt Q8IVH8); experiment: biochemical
SAPK2b(h) = SAPK2b(h) (Homo sapiens, UniProt Q15759); experiment: biochemical
PKCeta(h) = PKCeta(h) (Homo sapiens, UniProt P24723); experiment: biochemical
USP11 = USP11 (Homo sapiens, UniProt P51784); experiment: biochemical; conditions: read-out: Activity (% Control)
OTUD5 (p117S) = OTUD5 (p117S) (Homo sapiens, UniProt Q96G74); experiment: biochemical; conditions: read-out: Activity (% Control)
[2] = target: PI3 Kinase (p110b/p85a)(h) (Homo sapiens, UniProt P42338); conditions: 10 µM; listed as BAY-805, 10 µM
PI3 Kinase (p120g)(h) [3] = target: T1, PI3 Kinase (p120g)(h) (Homo sapiens, UniProt P48736); experiment: biochemical
[4] = target: T2, PI3 Kinase (p110d/p85a)(h) (Homo sapiens, UniProt O00329); experiment: biochemical
[5] = target: T2, PI3 Kinase (p110d/p85a)(h); conditions: 10 µM
PI3KC2a(h) [6] = target: T3, PI3KC2a(h) (Homo sapiens, UniProt O00443); experiment: biochemical
PI3 Kinase (p120g)(h) [7] = target: T1, PI3 Kinase (p120g)(h); conditions: 10 µM
AMSH-LP (+Zinc) = AMSH-LP (+Zinc) (Homo sapiens, UniProt Q96FJ0); experiment: biochemical; conditions: read-out: Activity (% Control)
PI3KC2a(h) [8] = target: T3, PI3KC2a(h); conditions: 10 µM
USP1/UAF1 = USP1/UAF1 (Homo sapiens, UniProt O94782); experiment: biochemical; conditions: read-out: Activity (% Control)

Structure (SMILES) | inhibition at 10 µM (CDK6/cyclinD3(h)) [%] | inhibition at 10 µM (PAK5(h)) [%] | inhibition at 10 µM (Met(h)) [%] | inhibition at 10 µM (Carbonic Anhydrase II) [%] | inhibition at 10 µM (ROCK-II(h)) [%] | inhibition at 10 µM (MINK(h)) [%] | inhibition at 10 µM (DDR2(h)) [%] | inhibition at 10 µM (CDK1/cyclinB(h)) [%] | inhibition at 10 µM (STK39(h)) [%] | IC50 (A549) [µM] | inhibition at 10 µM (TAK1(h)) [%] | inhibition at 10 µM (Fyn(h)) [%] | inhibition at 10 µM (PEK(h)) [%] | inhibition at 10 µM (GRK6(h)) [%] | inhibition at 10 µM (HPK1(h)) [%] | inhibition at 10 µM (Monoamine Oxidase MAO-A) [%] | inhibition at 10 µM [1] [%] | inhibition at 10 µM (GCK (h)) [%] | inhibition at 10 µM (JAK1(h)) [%] | inhibition at 10 µM (CDKL2(h)) [%] | further results
CC(C)C[C@H](NC(=O)C1(C(F)(F)F)CCCCC1)C(=O)Nc1nnc(Cc2ccc(C#N)cc2)s1 [Compound 22, CC(C)C[C@H](NC(=O)C1(CCCCC1)C(F)(F)F)C(=O)Nc2nnc(Cc3ccc(cc3)C#N)s2] | -16.8 | 12.8 | 7.84 | 1 | -4.94 | -12.3 | -7.41 | -0.33 | -9.43 | > 30 | -8.54 | 1.56 | 1.95 | 6.11 | 0.4 | 5 | 41 | 8.31 | 1.11 | 10.4 | remaining activity at 1 µM (USP5): 104%; remaining activity at 10 µM (USP5): 105%; remaining activity at 1 µM (USP45): 94%; remaining activity at 10 µM (USP45): 98%; remaining activity at 1 µM (USP8): 93%; remaining activity at 10 µM (USP8): 109%; remaining activity at 1 µM (USP25): 105%; remaining activity at 10 µM (USP25): 105%; inhibition at 10 µM (Tie2(h)): -3.43%; inhibition at 10 µM (MAP4K3(h)): -1.13%; inhibition at 10 µM (SAPK2b(h)): -6.41%; inhibition at 10 µM (PKCeta(h)): 23.7%; remaining activity at 1 µM (USP11): 99%; remaining activity at 10 µM (USP11): 102%
CC(C)C[C@@H](NC(=O)C1(C(F)(F)F)CCCCC1)C(=O)Nc1nnc(Cc2ccc(C#N)cc2)s1 [Compound 21, N-[(1R)-1-[[5-[(4-Cyanophenyl)methyl]-1,3,4-thiadiazol-2-yl]carbamoyl]-3-methyl-butyl]-1-(trifluoromethyl)cyclohexanecarboxamide] | -12.4 | 8.53 | 12.6 | 3 | 2.99 | 1.61 | -4.1 | 1.6 | -2.66 | > 30 | -6.84 | -2.08 | -0.12 | 4.94 | 11 | 3 | 9 | 11 | 5.61 | 8.38 | remaining activity at 1 µM (OTUD5 (p117S)): 102%; remaining activity at 10 µM (OTUD5 (p117S)): 90%; Inhibition [2]: 7.43% and 15.38%; inhibition at 10 µM (PI3 Kinase (p120g)(h) [3]): 2.58%; inhibition at 10 µM [4]: 13.1%; Inhibition [5]: 21; inhibition at 10 µM (PI3KC2a(h) [6]): 7.47%; Inhibition (PI3 Kinase (p120g)(h) [7]): 3.07; remaining activity at 1 µM (AMSH-LP (+Zinc)): 99%; remaining activity at 10 µM (AMSH-LP (+Zinc)): 93%; Inhibition (PI3KC2a(h) [8]): 5.4; remaining activity at 1 µM (USP8): 94%; remaining activity at 10 µM (USP8): 96%; inhibition at 10 µM (Tie2(h)): -3.39%; remaining activity at 1 µM (USP1/UAF1): 117%; remaining activity at 10 µM (USP1/UAF1): 111%; inhibition at 10 µM (MAP4K3(h)): 1.35%; inhibition at 10 µM (SAPK2b(h)): 8.08%; inhibition at 10 µM (PKCeta(h)): 19.4%
